## Apparent affinities of Ab-14 variants for a coronavirus HR2 peptide

Binding partner: SARS-CoV-2 spike HR2 peptide, sequence PDVDLGDISGINAS.

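Phage display of a naive human antibody library on the peptide gave the parent. These sequences belong to a second round, designed from the earlier measurements on random variants of the parent. Their group label is 14L_En_Gibbs (En: ensemble of fine-tuned language models; Gibbs: Gibbs sampling). AlphaSeq pools MATa yeast showing the antibodies with MATalpha yeast showing the peptide. After mating in shaken culture at 30 °C for 16 h, diploids were selected and their barcode pairs sequenced. A regression on co-assayed BCL2-family reference pairs converts the normalised counts of each replicate to an apparent Kd. The assay was run in six technical replicates.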

Parent scFv Ab-14: VH joined to VL by a 15-residue (Gly4Ser)3 linker. Changes lie in the light chain CDRs alone.
VH: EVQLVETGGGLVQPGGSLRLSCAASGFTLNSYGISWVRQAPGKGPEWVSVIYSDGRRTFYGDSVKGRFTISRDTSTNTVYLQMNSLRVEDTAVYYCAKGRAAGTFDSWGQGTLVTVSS
VL: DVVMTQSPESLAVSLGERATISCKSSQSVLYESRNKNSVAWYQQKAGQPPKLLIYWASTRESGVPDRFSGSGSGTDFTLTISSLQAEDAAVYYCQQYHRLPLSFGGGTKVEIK

Each variant is given by its three light chain CDRs, as the data file delimits them; those of the parent are KSSQSVLYESRNKNSVA, WASTRES, QQYHRLPLS.
Scale: log10 of Kd in nM, estimated from mating counts; low values are strong binders.
"nd" means that the variant was in the library but no mating with the target was seen in that replicate; the authors take this as a sign of poor binding, and no number exists.
Values of this round are not directly comparable with the first-round values of the same sequences.
In the paper, a design with two or fewer of six values counts as a poor binder.
Three control strains display no target. For all light chain designs, 4% of the pairings with them gave a signal, with a median of 2.64 and one signal in twenty below 1.59, so weak values seen in few replicates may be background. For each scFv, signals with the empty controls are counted beside the result, with their mean in brackets.

| CDR-L1 | CDR-L2 | CDR-L3 | log10 Kd (nM) by replicate | control signals |
|---|---|---|---|---|
| MIAGSMESQEANWAPVA | SATCKEP | QQYSRLPLM | 1.58 1.49 1.86 1.96 3.25 2.02 | 0/18 |
| KIQQEHVGNNKKMEAIA | QGDQRCH | QSYDRLPLS | 1.07 0.51 0.35 0.78 0.64 1.19 | 2/18 (2.05) |
| KLWMIFFEGQQELSAVA | NAGVLVQ | QQYNVLPLS | nd nd nd nd nd nd | 0/18 |
| HISIKLPGNWKMMDSVA | HSELRAE | QQYDRLPLM | 1.04 0.68 0.84 0.63 0.65 1.01 | 0/18 |
| KIQDNLGTLMEQINSVA | ASEEIVD | QSYFRLPLI | 2.18 1.27 nd 1.35 1.47 1.58 | 1/18 (0.74) |
| KLSNWYFDSYGNYQSVA | ENEATSN | QQYSLLPLS | nd nd nd nd nd nd | 0/18 |
| KLWIDMYNGRNQANAVA | EGNILAN | QQYARLPFL | 0.84 0.76 0.47 0.66 0.43 0.83 | 1/18 (3.50) |
| HVSHQLRPGREIQNPIA | EGSHRAA | QQYDRLPLG | 0.82 0.95 1.18 0.87 0.51 0.85 | 1/18 (3.13) |
| ALTSDLEVEQVNARAVA | NAHAVES | QQYQHLPLS | 1.69 1.42 1.23 1.52 1.74 1.65 | 1/18 (1.88) |
| LLQQDFYNERSQANAVA | DGNQLAS | QDYARLPLV | 1.10 0.98 1.64 1.22 1.06 1.01 | 0/18 |
| KFANQLVYWNQGQNAIA | DVTTKSA | QQYLQLPLM | 1.26 1.62 1.53 2.05 1.19 1.52 | 0/18 |
| HVEHASLLSNATMNSVA | NEACLAD | QQYFRLPLA | 0.52 0.26 -0.03 0.37 0.67 1.07 | 1/18 (2.41) |
| HFSQMLEPGAQNFNAVA | HGDRVTE | QQYHKLPLM | nd nd 2.61 nd 3.55 2.65 | 0/18 |
| MIAGSMESQEANQAPVA | SATCKEP | QQYSRLPLM | 0.39 0.93 0.22 -0.35 2.09 0.15 | 0/18 |
| SFDLTKSGMENQQYSIA | ERNELMT | QDYHRLPLA | 3.09 1.17 1.91 0.63 1.28 1.26 | 0/18 |
| HVEHDWLLSNATMKAVA | NGATLAD | QQYGRLPLA | 0.72 0.85 0.53 0.55 0.46 0.92 | 0/18 |
| RFSQTEQMGIRDYNSVA | NGSTVAT | QHYSRLPIS | 0.78 0.95 0.91 0.78 0.90 1.04 | 0/18 |
| KFDLLMTDEKNANKNVA | GNVHHMA | QQYERLPLS | 0.71 0.35 0.32 0.52 0.19 0.48 | 1/18 (2.35) |
| SLQTKYSTAQDRWSNIA | HADQVEA | QQYFRLPIV | 1.24 1.59 1.23 1.34 1.12 1.63 | 0/18 |
| RLGMNFTWPGNARQSVA | EIQKAID | QQYAHLPLS | nd nd nd nd nd nd | 0/18 |
| NVSWKQSGFENEWMAVA | NTSERNA | QQYARLPIS | 2.01 2.05 2.46 1.21 1.66 2.12 | 1/18 (2.47) |
| MISINQSNYGGMRSAIA | DTNLARM | QQYYHLPLM | nd 1.76 1.81 nd nd 2.85 | 0/18 |
| RVTIISDPYMENRNAIA | QTSLRAH | QQYQMLPLT | 1.54 1.08 1.36 1.53 0.99 1.39 | 1/18 (2.74) |
| QIDSFYQHGTDQNQAMA | DVTVRDQ | QQYSRLPLS | 0.48 0.53 0.56 0.55 0.34 0.54 | 1/18 (2.31) |
| MISVEEAPAGQQESSIA | HGGTKSE | QQYNRLPLA | nd 0.52 1.36 0.66 1.12 1.43 | 0/18 |
| KLSWDCTTDLNRMHSIA | ESEVAVD | QQYAHLPLT | 1.18 0.76 2.32 2.05 1.25 1.47 | 1/18 (2.42) |
| KLSLMLNDMDARMWNVA | EGNQLKA | QDYHRLPLH | 1.12 2.13 1.34 1.47 2.01 1.32 | 0/18 |
| NLSYQQQEPTGMVNSVA | QTSLRAH | QQYAHLPLC | 0.85 0.59 0.72 0.46 0.39 0.77 | 1/18 (3.37) |
| NMEGVEGEIAQHGNSVA | GVDLREA | QQYARLPLH | 0.77 0.81 1.00 0.64 0.88 0.75 | 2/18 (2.56) |
| SMSNAQFNPDNWKNSIA | DAEHVAY | QQYSRLPIT | 0.43 0.61 0.33 0.06 0.22 0.47 | 1/18 (3.12) |
| TLVDWIQGGTWAKKNVA | DEQTRVN | QQYYRLPLS | 0.54 0.32 0.29 0.27 0.71 0.93 | 0/18 |
| VLGGQWGLGTTQNSSIA | NDSETML | QQYWRLPFM | nd nd nd nd nd nd | 1/18 (0.85) |
| RLTEHTSERAYADASVA | NASTRND | QQYHRLPLF | 1.17 0.86 0.99 0.63 1.08 1.22 | 1/18 (2.26) |
| KLVQPDDNDNQDMRAVA | DENTLGQ | QQYHRLPLG | 2.22 nd 2.33 nd 1.79 nd | 1/18 (2.36) |
| NVDISANVGYNHKAAVA | EHDERVG | QQYYRLPLA | 0.45 0.11 0.16 0.12 0.06 0.39 | 0/18 |
| KISINQSNYNGMRSAIA | NTNQARM | QQYFHLPLM | 1.44 0.94 1.69 1.05 0.99 1.11 | 0/18 |
| KLTKYQYNATSHYQNVA | ESNKVME | QSYYRLPLS | nd nd nd 2.20 nd 1.93 | 0/18 |
| IMTGIIEEGSNNKRNIA | ENKERFQ | QQYWQLPLA | 1.95 0.78 nd nd 1.01 nd | 0/18 |
| KFHMGWEMGSRKVDNIA | EANLRFS | QQYNRLPLF | -0.23 0.98 0.69 0.96 0.71 1.12 | 0/18 |

Values reported by Li et al. 2023, doi:10.1038/s41467-023-39022-2 (FLAb copy).